The numbers were not newly measured in US11568956B2, “Methods for identifying inhibitors of amyloid protein aggregation” (Treventis Corporation, priority 2008, dated 2023), which cites them from elsewhere.

By UniProt entry, the sequences of proteins in these tests, tags left out. Where a name states a change or a piece, a line headed by the entry shows the natural chain unless it says otherwise.
UniProt P05067: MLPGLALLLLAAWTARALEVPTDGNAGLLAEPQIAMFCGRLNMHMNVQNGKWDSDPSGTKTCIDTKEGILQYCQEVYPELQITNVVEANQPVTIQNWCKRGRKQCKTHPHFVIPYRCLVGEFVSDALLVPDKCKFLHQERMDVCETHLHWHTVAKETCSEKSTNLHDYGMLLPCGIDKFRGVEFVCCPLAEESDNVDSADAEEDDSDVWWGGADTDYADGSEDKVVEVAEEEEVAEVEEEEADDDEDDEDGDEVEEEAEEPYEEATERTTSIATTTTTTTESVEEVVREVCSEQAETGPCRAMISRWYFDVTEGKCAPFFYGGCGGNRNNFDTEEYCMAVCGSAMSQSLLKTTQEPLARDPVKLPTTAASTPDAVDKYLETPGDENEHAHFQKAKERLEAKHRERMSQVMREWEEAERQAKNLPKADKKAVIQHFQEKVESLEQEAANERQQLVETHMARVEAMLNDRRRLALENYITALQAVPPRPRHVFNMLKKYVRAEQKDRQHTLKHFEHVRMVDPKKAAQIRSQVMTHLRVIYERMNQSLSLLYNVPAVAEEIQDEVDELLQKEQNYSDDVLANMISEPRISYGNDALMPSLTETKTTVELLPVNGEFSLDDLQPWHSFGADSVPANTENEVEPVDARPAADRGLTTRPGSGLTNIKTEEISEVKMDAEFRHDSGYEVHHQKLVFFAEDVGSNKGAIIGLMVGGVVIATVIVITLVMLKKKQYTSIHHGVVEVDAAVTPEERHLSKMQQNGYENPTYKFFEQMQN

The target of this data set is Aβ (Homo sapiens, UniProt P05067). The settings on record: read-out: Expt (IC50); unit not in the table, μM; Masuda test set; cited from earlier work.

On to quinacrine mustard, for which the IC50 is 1.2 µM.

By IC50 is commonly meant the concentration needed to halve the response being measured.
